One compound from US9409868B2, “Inhibitors of rho associated protein kinases (ROCK) and methods of use” (H. LEE MOFFITT CANCER CENTER AND RESEARCH INSTITUTE, INC., priority 2012, dated 2016) can be followed below.

The chains behind the UniProt entries cited, without tags or fusion partners. Where a name states a change or a piece, a line headed by the entry shows the natural chain unless it says otherwise.
UniProt Q13464: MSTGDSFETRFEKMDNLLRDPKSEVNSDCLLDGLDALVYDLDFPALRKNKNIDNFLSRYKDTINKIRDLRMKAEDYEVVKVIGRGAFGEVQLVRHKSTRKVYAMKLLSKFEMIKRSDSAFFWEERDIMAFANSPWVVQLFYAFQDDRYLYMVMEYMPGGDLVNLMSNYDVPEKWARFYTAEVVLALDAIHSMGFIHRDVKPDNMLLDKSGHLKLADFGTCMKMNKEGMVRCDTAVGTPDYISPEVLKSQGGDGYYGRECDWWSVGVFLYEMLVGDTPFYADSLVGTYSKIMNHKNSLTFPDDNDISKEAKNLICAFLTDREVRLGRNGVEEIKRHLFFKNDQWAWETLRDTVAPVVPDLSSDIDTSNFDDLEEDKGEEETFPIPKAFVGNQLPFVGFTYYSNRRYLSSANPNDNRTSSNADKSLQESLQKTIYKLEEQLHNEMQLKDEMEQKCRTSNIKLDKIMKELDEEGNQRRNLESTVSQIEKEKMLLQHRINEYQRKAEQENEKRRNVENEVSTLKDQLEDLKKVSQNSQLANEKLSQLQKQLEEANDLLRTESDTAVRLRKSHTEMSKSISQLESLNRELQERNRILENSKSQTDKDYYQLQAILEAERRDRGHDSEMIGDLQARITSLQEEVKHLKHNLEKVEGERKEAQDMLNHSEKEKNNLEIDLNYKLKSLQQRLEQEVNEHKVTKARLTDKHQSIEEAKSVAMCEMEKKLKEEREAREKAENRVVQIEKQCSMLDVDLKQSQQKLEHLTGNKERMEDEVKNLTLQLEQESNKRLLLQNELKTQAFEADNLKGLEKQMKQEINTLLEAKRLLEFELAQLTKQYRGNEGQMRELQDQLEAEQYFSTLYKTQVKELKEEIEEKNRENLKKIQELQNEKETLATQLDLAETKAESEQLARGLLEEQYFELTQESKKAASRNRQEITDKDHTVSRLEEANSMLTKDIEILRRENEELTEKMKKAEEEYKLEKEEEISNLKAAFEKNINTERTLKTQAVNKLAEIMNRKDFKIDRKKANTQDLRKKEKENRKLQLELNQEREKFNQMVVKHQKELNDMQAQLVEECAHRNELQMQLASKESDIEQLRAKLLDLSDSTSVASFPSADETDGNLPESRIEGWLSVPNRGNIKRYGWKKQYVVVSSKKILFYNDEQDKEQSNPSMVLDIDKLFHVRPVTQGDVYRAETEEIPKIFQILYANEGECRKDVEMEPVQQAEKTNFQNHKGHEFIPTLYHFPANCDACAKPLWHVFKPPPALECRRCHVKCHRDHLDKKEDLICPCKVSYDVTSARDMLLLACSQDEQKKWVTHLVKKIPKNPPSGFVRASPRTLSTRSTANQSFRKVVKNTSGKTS
UniProt O75116: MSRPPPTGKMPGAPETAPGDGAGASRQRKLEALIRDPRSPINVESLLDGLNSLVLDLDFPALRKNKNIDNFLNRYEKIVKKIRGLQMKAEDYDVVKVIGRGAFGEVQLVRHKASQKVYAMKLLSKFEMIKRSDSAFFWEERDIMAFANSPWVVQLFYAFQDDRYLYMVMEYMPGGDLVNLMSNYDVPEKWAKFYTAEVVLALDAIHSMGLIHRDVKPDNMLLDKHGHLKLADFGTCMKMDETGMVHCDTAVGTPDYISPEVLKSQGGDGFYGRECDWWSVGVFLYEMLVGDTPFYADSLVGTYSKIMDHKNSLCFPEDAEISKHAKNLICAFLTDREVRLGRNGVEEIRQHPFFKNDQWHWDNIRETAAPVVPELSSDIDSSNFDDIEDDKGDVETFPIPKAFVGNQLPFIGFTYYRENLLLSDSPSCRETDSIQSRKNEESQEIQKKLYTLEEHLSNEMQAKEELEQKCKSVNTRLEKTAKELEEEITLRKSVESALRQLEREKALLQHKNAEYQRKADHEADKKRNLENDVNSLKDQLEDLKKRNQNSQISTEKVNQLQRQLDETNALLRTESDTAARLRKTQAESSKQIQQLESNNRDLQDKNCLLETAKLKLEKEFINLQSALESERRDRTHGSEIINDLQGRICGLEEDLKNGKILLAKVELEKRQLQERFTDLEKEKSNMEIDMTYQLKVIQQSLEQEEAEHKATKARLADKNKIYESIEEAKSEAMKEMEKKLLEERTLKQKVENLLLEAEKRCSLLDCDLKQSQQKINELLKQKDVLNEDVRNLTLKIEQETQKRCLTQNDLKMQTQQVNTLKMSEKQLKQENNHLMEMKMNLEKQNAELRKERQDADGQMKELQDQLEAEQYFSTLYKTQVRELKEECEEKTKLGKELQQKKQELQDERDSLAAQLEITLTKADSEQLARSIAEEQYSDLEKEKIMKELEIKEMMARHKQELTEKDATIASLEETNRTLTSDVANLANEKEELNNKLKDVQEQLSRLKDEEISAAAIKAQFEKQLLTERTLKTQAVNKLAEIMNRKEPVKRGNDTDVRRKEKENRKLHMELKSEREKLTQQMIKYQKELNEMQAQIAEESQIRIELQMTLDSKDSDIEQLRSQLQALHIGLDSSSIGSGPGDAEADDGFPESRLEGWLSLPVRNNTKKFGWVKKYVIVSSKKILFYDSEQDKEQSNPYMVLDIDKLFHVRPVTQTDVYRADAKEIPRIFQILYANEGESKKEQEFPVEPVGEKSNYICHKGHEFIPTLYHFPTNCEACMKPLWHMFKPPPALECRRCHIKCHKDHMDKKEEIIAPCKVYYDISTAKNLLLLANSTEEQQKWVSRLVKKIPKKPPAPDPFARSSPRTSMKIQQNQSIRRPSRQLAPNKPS

Assay [1] deals with ROCK1 (Homo sapiens (Human), UniProt Q13464). The assay is described as follows: Z-Lyte FRET kinase assay, ROCK1. In kind it is biochemical.
The target of assay [2] is ROCK2 (Homo sapiens (Human), UniProt O75116). Description: Z-Lyte FRET kinase assay, ROCK2. In kind it is biochemical.

Regarding `Nc1ccc2[nH]ncc2c1` [Compound 8, 5-Aminoindazole], the “LE (Ligand Efficiency), ROCK1” value in assay [1] is recorded as 0.51. For the same compound, the “LE (Ligand Efficiency), ROCK2” value in assay [2] is recorded as 0.53.
